Data: ChEMBL document CHEMBL1138063, “Imidazole-dioxolane compounds as isozyme-selective heme oxygenase inhibitors” (J Med Chem, 2006)

By UniProt entry, the sequences of proteins in these tests, tags left out. Where a name states a change or a piece, a line headed by the entry shows the natural chain unless it says otherwise.
UniProt P05182: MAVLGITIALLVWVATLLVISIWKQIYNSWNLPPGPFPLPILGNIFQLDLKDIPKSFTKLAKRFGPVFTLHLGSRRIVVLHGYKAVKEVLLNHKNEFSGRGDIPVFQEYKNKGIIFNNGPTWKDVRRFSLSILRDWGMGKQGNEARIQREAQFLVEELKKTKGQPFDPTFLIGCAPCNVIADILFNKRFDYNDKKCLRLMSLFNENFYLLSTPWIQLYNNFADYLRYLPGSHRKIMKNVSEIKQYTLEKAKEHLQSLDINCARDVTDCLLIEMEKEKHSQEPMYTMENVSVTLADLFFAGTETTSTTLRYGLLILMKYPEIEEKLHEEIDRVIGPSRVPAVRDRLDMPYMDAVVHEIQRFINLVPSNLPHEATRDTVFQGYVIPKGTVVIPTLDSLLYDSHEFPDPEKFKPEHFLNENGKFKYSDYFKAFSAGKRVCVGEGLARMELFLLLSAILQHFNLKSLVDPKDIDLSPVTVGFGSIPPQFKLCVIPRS

Target: Cytochrome P450 2E1 (Rattus norvegicus, UniProt P05182)
Assay: Inhibition of rat liver CYP2E1
Type: ADME, tissue-based
Procedure, shortened: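 Rat liver microsomal CYP2E1 activity was read as p-nitrophenol hydroxylation, by spectrophotometric measurement of 4-nitrocatechol. Activity at several inhibitor concentrations (HCl salts) was expressed as percent of control. IC50 came from a nonlinear sigmoidal dose-response fit of each of two or three replicate curves.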

IC50: 14 µM
Structure (SMILES): Clc1ccc(CCC2(Cn3ccnc3)SCCS2)cc1
